## OPERA 2.9 data: water solubility values

Source: data files of OPERA 2.9 (Mansouri et al.), github.com/kmansouri/OPERA.

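The OPERA project collected these measurements from public sources as training and test data for property models. The files give a single number for a compound and property, which may rest on several reports. Conditions of the individual experiments are not part of the data. The measured form (salt, isomer or mixture) is not always the one drawn. Unmarked limits or estimates from the upstream databases cannot be ruled out.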

Water solubility is log10 of mol/L, nominally at 25 °C; higher is more soluble.

| structure (SMILES) | log solubility (log10 mol/L) |
|---|---|
| CCCC[N+](CC)(CCCC)CCCCCC[N+](CC)(CCCC)CCCC.CCOS(=O)(=O)[O-].CCOS(=O)(=O)[O-] | -0.131 |
| CC/C=C\CCCCCCCCCCO | -4.73 |
| O=C1c2c(Cl)c(Cl)c(Cl)c(Cl)c2C(=O)C1c1ccc2cccc(N3C(=O)c4c(Cl)c(Cl)c(Cl)c(Cl)c4C3=O)c2n1 | -7.435 |
| COc1cc([N+](=O)[O-])ccc1N=Nc1ccc(N(CCO)CCO)cc1 | -4.699 |
| O=C(O)c1ccc2cc(C(=O)O)ccc2c1 | -7.858 |
| O=S(=O)(O)c1ccc2[nH]c(-c3ccccc3)nc2c1 | -3.181 |
| CCCCCCCCCC(O)C(O)C(=O)O (stereo unspecified) | -3.521 |
| O=C1Cc2cccc(F)c2N1 | -2.225 |
| CNC(=O)Nc1cccc(Cl)c1 | -2.41 |
| CC(C)=CCCC(C)CCO (stereo unspecified) | -2.712 |
| CC(C)NCC1CCc2cc(CO)c([N+](=O)[O-])cc2N1 (stereo unspecified) | -2.967 |
| O=C1OCCN1N=CC=Cc1ccc([N+](=O)[O-])o1 | -4.418 |
| NCCOP(=O)(O)O | -0.292 |
| CN(C)C(=O)Nc1cccc(F)c1 | -1.699 |
| CC(C)c1ccc(C(O)C(=O)O)cc1 (stereo unspecified) | -2.012 |
| NC(=O)c1ccccc1Cl | -0.883 |
| O=C(Nc1ccc(Cl)cc1)c1cc([N+](=O)[O-])ccc1O | -5.122 |
| O=C(O)/C(Br)=C\Br | -0.669 |
| O=C1C(O)=C(Br)C(=O)C(O)=C1Br | -2.313 |
| CCOC(=O)CN(C)C(=O)COC(=O)c1ccccc1OC(C)=O | -2.546 |
| CCOC(=O)[C@@H](O)[C@H](O)[C@H](O)[C@@H](O)C(=O)OCC | -1.069 |
| O=C(Nc1ccc(NC(=O)c2cc3ccccc3c(N=Nc3cc(Cl)ccc3Cl)c2O)cc1)c1cc2ccccc2c(N=Nc2cc(Cl)ccc2Cl)c1O | -8.087 |
| O=C1OC(c2ccc(O)c(-c3ccccc3)c2)(c2ccc(O)c(-c3ccccc3)c2)c2ccccc21 | -3.559 |
| CC(C)C(=O)OCC(=O)[C@@]12O[C@H](C3CCCCC3)O[C@@H]1C[C@H]1[C@@H]3CCC4=CC(=O)C=C[C@]4(C)[C@H]3[C@@H](O)C[C@@]12C | -5.537 |
| O=C=Nc1ccc(N=C=O)cc1 | -2.647 |
| NC(=O)NC(N)=O | -0.831 |
| CCCCCCCCCC(C)=O | -6.979 |
| Clc1cc(Cl)c(Cl)c(Oc2ccc(Cl)c(Cl)c2)c1 | -7.83 |
| CC(C)c1ccc(CCO)cc1 | -2.261 |
| CCOC(=O)[C@H](CCc1ccccc1)N[C@@H](C)C(=O)N1CC2(C[C@H]1C(=O)O)SCCS2 | -4.202 |
| Nc1ccc(N=Nc2ccc([N+](=O)[O-])cc2)cc1 | -5.851 |
| Cc1cn([C@H]2C[C@H](O)[C@@H](CO)O2)c(=O)[nH]c1=O | -0.711 |
| CCOC(COC)OC (stereo unspecified) | 0.88 |
| CCCCC(C(=O)O)C(=O)O | 0.438 |
| Nc1nc2c(ncn2[C@H]2C[C@H](O)[C@@H](COP(=O)(O)OP(=O)(O)O)O2)c(=O)[nH]1 | -1.89 |
| O=C(O)c1cc([N+](=O)[O-])ccc1Cl | -1.748 |
| CCCCCC1CCC(=O)O1 (stereo unspecified) | -1.855 |
| Cc1ccc(/N=N/c2c(O)c(C(=O)[O-])cc3ccccc23)c(S(=O)(=O)[O-])c1.[Ba+2] | -5.735 |
| CCCCCCCCCCCCCCN(C)C | -3.936 |
| N#C/C(=C\c1cccc(Cl)c1F)c1ccc(Cl)cc1F | -7.191 |

The 4 highest values of log solubility among the entries above:

{"smiles": "CCOC(COC)OC", "stereo": "stereo unspecified", "log solubility (log10 mol/L)": "0.88"}
{"smiles": "CCCCC(C(=O)O)C(=O)O", "log solubility (log10 mol/L)": "0.438"}
{"smiles": "CCCC[N+](CC)(CCCC)CCCCCC[N+](CC)(CCCC)CCCC.CCOS(=O)(=O)[O-].CCOS(=O)(=O)[O-]", "log solubility (log10 mol/L)": "-0.131"}
{"smiles": "NCCOP(=O)(O)O", "log solubility (log10 mol/L)": "-0.292"}